Protein sequences, listed by entry. Tags and fused reporters are not part of them.
UniProt P23458, whole entry: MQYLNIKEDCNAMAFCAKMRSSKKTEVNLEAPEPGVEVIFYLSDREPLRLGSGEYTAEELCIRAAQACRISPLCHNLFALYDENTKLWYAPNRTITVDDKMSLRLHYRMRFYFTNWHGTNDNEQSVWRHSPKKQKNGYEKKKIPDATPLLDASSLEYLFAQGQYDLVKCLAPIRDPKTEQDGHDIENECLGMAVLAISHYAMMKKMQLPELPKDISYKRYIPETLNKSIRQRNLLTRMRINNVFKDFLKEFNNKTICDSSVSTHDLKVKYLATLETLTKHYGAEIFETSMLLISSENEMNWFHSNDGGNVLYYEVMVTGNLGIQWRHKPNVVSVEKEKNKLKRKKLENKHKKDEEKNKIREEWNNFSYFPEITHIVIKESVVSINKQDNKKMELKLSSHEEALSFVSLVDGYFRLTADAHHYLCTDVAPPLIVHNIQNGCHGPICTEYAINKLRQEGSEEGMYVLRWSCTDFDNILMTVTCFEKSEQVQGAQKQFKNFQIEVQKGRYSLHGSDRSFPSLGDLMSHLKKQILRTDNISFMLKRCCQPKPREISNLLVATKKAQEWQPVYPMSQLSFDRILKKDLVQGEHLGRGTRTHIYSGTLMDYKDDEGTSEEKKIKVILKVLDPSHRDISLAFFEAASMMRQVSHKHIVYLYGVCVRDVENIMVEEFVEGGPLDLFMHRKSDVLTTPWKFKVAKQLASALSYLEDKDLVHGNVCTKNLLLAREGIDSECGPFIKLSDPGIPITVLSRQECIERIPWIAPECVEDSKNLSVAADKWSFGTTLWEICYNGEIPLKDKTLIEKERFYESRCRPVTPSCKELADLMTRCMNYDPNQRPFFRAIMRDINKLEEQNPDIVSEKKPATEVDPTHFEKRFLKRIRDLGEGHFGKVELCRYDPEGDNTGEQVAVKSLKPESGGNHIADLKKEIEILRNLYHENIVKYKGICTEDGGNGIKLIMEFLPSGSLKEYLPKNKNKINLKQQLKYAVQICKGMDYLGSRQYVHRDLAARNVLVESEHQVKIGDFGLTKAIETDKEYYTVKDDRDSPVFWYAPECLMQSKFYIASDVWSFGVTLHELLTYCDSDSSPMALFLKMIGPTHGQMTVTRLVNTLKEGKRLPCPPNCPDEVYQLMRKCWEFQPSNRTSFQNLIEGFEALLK

In patent publication US10196393B2, “JAK inhibitors containing a 4-membered heterocyclic amide” (THERAVANCE BIOPHARMA R&D IP, LLC, priority 2017, dated 2019):

Columns and labels:
[1] = tested on: IL-13 induced pSTAT6 induction in lung tissue; test: Murine model of IL-13 induced pSTAT6 induction in lung tissue; settings: mouse lung, 1 mg/mL 50 μL oral aspiration, IL-13 challenge 4 h after dose, lungs at 5 hours
JAK1 = JAK1 (Homo sapiens (Human), UniProt P23458); test: Biochemical JAK kinase assay (LanthaScreen), JAK1; settings: read-out: JAK1 Ki; converted from pIC50 with Cheng-Prusoff equation
[2] = tested on: IL-13 induced STAT6 phosphorylation in BEAS-2B human lung epithelial cells; test: Cellular JAKI potency assay (AlphaScreen), BEAS-2B; settings: read-out: BEAS-2B IC50, BEAS-2B cells

| Ki (JAK1) | Structure (SMILES) | pSTAT6 inhibition Assay 4 [1] | IC50 [2] |
| --- | --- | --- | --- |
| 0.1 nM | CCCN1Cc2[nH]c(-c3n[nH]c4cc(-c5cc(F)c(O)cc5CC)ccc34)nc2C[C@@H]1C(=O)N1CC(N(C)C)C1 | B (B represents between 40% and 60% inhibition) | 4 nM |
|  | CCCN1Cc2[nH]c(-c3n[nH]c4cc(-c5cc(F)c(O)cc5CC)ccc34)nc2CC1C(=O)N1CC(N(C)C)C1 (centres unmarked) | B (B represents between 40% and 60% inhibition) | 5 nM |
